From US9796984B2, “Protection against herbivores” (priority 2004, dated 2017)
This is a selection: effects in other tests are not listed, and their absence says nothing.

Tests used:
LeARG1 = experiment: Effect of various compounds on arginase activity, LeARG1; assay type: biochemical, Lycopersicon esculentum (tomato); conditions: compound 2.0 mM, 25 mM L-arginine; % of control reaction
Protocol: (§1) Homogenates were centrifuged at 20,000×g for 10 min at 4° C., and the supernatants were used as the enzyme source. Recombinant LeARG enzyme was prepared as described above. Protein concentrations were determined as described above. Arginase activity was measured with a spectrophotometric assay for detection of urea (Alabadi et al., Plant Physiol. 112:1237-1244 (1996)), with minor modifications. The enzyme solution was activated with 1 mM MnCl2 at 37° C. for 60 min. […] Reactions were carried out at 37° C. for 20 min and stopped by the addition of 500 μl of 15% (v/v) perchloric acid. A 200-μl aliquot was mixed vigorously with 3 ml of acid mixture [9% (v/v) of phosphoric acid and 27% (v/v) of sulfuric acid] and 100 μl of 3% (w/v) α-isonitrosopropiophenone (Sigma) in 95% ethanol. This mixture was heated in a boiling water bath in the dark for 60 min and cooled for 10 min to room temperature. The OD540 was recorded on a Uvikon 933 spectrophotometer (Research Instruments, San Diego, Calif.). Substrate specificity tests were performed as described above with the exception that agmatine and other related compounds were added in place of L-arginine, to a final concentration of 250 mM. Substrates tested were obtained from Sigma. […]

LeARG2 = experiment: Effect of various compounds on arginase activity, LeARG2; assay type: biochemical, Lycopersicon esculentum (tomato); conditions: compound 2.0 mM, 25 mM L-arginine; % of control reaction
Protocol: as §1

Sodium nitroprusside
Relative activity (%) (LeARG1): 102%
Relative activity (%) (LeARG2): 105%
